Measured values from patent publication US7375222B2, “2,4,6-Triamino-1,3,5-triazine derivative” (Astellas Pharma Inc., priority 2002, dated 2008).

Chains of the proteins cited; added tags and fusions are not shown.
UniProt Q9ULD8, whole entry: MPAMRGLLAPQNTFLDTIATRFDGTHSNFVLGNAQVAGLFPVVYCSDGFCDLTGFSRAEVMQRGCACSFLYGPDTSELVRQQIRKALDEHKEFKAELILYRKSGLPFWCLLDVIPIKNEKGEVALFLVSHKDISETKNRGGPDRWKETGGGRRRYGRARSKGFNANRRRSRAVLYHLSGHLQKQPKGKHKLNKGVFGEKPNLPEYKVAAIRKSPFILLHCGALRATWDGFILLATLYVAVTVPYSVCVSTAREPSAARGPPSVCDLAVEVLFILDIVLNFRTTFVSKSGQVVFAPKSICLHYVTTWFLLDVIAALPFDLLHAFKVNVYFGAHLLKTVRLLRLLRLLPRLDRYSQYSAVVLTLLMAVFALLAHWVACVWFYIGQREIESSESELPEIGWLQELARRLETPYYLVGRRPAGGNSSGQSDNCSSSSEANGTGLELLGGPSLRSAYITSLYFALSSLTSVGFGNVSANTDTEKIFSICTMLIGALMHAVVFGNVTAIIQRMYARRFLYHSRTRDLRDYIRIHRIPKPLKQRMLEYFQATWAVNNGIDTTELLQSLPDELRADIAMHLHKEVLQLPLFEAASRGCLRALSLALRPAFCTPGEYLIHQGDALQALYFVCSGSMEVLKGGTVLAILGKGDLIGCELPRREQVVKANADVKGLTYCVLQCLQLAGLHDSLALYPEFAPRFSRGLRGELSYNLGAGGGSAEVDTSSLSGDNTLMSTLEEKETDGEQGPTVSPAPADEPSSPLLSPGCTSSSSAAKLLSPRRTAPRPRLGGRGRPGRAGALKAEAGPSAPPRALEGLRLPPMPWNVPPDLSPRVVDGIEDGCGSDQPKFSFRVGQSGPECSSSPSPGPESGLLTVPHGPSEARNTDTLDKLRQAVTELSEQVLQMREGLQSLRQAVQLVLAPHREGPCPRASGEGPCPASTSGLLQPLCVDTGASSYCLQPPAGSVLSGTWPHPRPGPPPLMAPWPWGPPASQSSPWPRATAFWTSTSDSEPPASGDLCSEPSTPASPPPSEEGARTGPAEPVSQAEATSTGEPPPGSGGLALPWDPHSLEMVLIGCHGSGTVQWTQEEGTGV

Target: BEC 1 potassium channel (Homo sapiens, UniProt Q9ULD8)
Assay: BEC 1 inhibitory activity using released amount of 86Rb ions from BEC 1-expressing cells
Conditions: read-out: BEC1 IC50; 86Rb ion release, BEC 1-stably expressing CHO (dhfr-deficient) cell, 100 mM KCl stimulation; tested form: HCl
Description: In general, the potassium channel can pass Rb^+ ion similar to K^+ ion, so that the channel activity can be measured using release of a radioisotope ^86Rb^+ as a marker. By incubating cells expressing the novel potassium channel protein together with ^86RbCl (e.g., 18 hr, 37° C.), ^86Rb^+ can be incorporated into the cells. The cells are washed with a low K^+ concentration physiological saline (e.g., 4.5 mM K^+) and then suspended in the same solution. When a high K^+ concentration solution (e.g., 100 mM in final concentration) is added to the cell suspension, membrane potential of the cell is depolarized and the potassium channel therefore is activated. As a result, the intracellular ^86Rb^+ is released into the extracellular part, thus radioactivity of the extracellular solution can be used as a marker of the channel activity. It is possible to screen a compound and a peptide capable of modifying activity of the BEC 1 potassium channel protein, by comparing the radioactivity released into the extracellular part when the high K^+ concentration solution is added in the presence and absence of each drug to be tested. […]
The channel activity of BEC 1 was measured in accordance with the method described in WO 99/37677, using amount of a radioisotope ^86Rb ion released from a BEC 1-expressing cell as the index. […]

IC50: 79 nM
SMILES: Fc1cc(CNc2nc(Nc3ccccc3)nc(Nc3ccccc3)n2)ccn1
